The subject of one series is Pseudomonas aeruginosa. Nature of the series: Antibacterial activity against Pseudomonas aeruginosa ATCC 9027 assessed as inhibition of bacterial growth incubated for 24 hrs by CLSI based broth dilution method. Type of series: functional. A general note: In broth dilution the organism is exposed to a series of concentrations in liquid medium.
The test system of another series is Escherichia coli. The experiment in a line: Antibacterial activity against Escherichia coli ATCC 25922 assessed as inhibition of bacterial growth incubated for 24 hrs by CLSI based broth dilution method. The series is classed as functional.
For series [1], the system named is Staphylococcus aureus. Nature of the series: Antibacterial activity against methicillin-resistant Staphylococcus aureus N315 assessed as inhibition of bacterial growth incubated for 24 hrs by CLSI based broth dilution method. Type of series: functional.
For series [2], the system named is Staphylococcus aureus. The experiment in a line: Antibacterial activity against Staphylococcus aureus ATCC 29213 assessed as inhibition of bacterial growth incubated for 24 hrs by CLSI based broth dilution method. The series is classed as functional.
Series [3] relates to Staphylococcus aureus. The experiment in a line: Antibacterial activity against methicillin-resistant Staphylococcus aureus NCTC10442 assessed as inhibition of bacterial growth incubated for 24 hrs by CLSI based broth dilution method. The series is classed as functional.
Series [4] can be described thus: Hemolytic activity in rabbit RBC measured after 1 hrs by multimode reader assay. The series is classed as toxicity, cell-based, Oryctolagus cuniculus, Erythrocyte. The following applies: rabbit red blood cells (erythrocytes).

Values after ≈ are worked out from the molar mass of the structure shown.

As for `CC[C@H](C)[C@H](NC(=O)CN)C(=O)NCC(=O)N[C@@H](C)C(=O)N[C@H](C(=O)N[C@@H](CC(C)C)C(=O)N[C@@H](CCCCN)C(=O)N[C@H](C(=O)N[C@@H](CC(C)C)C(=O)N[C@H](C(=O)N[C@H](C(=O)NCC(=O)N[C@@H](CC(C)C)C(=O)N1CCC[C@H]1C(=O)N[C@@H](C)C(=O)N[C@@H](CC(C)C)C(=O)N[C@H](C(=O)N[C@@H](CO)C(=O)N[C@@H](Cc1c[nH]c2ccccc12)C(=O)N[C@H](C(=O)N[C@@H](CCCCN)C(=O)N[C@@H](CCCNC(=N)N)C(=O)N[C@@H](CCCCN)C(=O)N[C@@H](CCCNC(=N)N)C(=O)N[C@@H](CCC(N)=O)C(=O)N[C@@H](CCC(N)=O)C(N)=O)[C@@H](C)CC)[C@@H](C)CC)[C@@H](C)O)[C@@H](C)O)C(C)C)C(C)C` [MELITTIN], the MIC with Pseudomonas aeruginosa, in the series with Escherichia coli, with Staphylococcus aureus [1], in the series with Staphylococcus aureus [2] and in the series on Staphylococcus aureus [3] was 3.12 µg/mL (≈ 1.1 µM) in each case. Moreover, in series [4], the HC50 (usually the concentration that lyses half of the red blood cells) at 1 h is 23.4 µg/mL.

(Values after ChEMBL document CHEMBL5214900, “Design, Synthesis, and Biological Evaluation of Membrane-Active Bakuchiol Derivatives as Effective Broad-Spectrum Antibacterial Agents” (J Med Chem, 2021).)
